The list shows a part of the results, in another mix than the full data. Active and inactive are the calls of the source. Calls follow the shape of the dose curve; as a rule, active = well fitted inhibition curve with a large enough effect; inconclusive = small, poorly fitted or top-dose-only effect; inactive = no such curve, though single readings can be large or run the other way.
target: Isocitrate dehydrogenase [NADP] cytoplasmic (Homo sapiens) (UniProt O75874); experiment: qHTS for Inhibitors of mutant isocitrate dehydrogenase 1 (IDH1): qHTS; conditions: IDH1-R132H enzyme, NADPH consumption, diaphorase/resazurin fluorescence; at 76.6 µM (top of the series) unless noted; also: nearly all actives have a fitted effect of over 65% in size
Description: Unbiased genomic sequencing for 22 glioma genomes found recurrent mutation of isocitrate dehydrogenase 1 (IDH1) on chromosome 2q33-a gene encoding the cytosolic isoform of IIDH1associated with the tricarboxylic acid cycle (TCA) that catalyzes the oxidative decarboxylation of isocitrate, yielding alpha-ketoglutarate and CO2 via NADP+ to NADPH conversion. Subsequent studies confirmed the recurrent IDH mutations in up to 70% of secondary gliomas and in 10% of AML cases. […] This in effect defines IDH1 as an oncogene, and provides an extraordinary opportunity to discover chemical probes against mutant IDH1 that may translate into much needed new therapies for glioma and AML patients. […] NIH Chemical Genomics Center [NCGC] NIH Molecular Libraries Probe Centers Network [MLPCN] MLPCN Grant: DA032129 Assay Submitter (PI): Lenny Dang, Agios Pharmaceuticals
IDH1-R132H (0.5 ug/mL) was dispensed into black, solid-bottom 1536-well plates at 3 uL/well in 20 mM Tris-HCl (pH 7.5), 150 mM NaCl, 10 mM MgCl2, 4 mM beta-ME, and 0.05% protease-free BSA. Then, 23 nL of compounds or DMSO were delivered to each well using a pin tool. A pre-read was run on the Viewlux to identify fluorescent compounds (540 nm excitation filter, 598 nm emission filter, bodipy mirror and 2 second exposure). After 30 minutes of incubation with compound, 3 uL of substrate mix were dispensed (0.016 mM NADPH, 2 mM alpha-KG, 20 mM Tris-HCl (pH 7.5), 150 mM NaCl, 10 mM MgCl2, and 0.05% protease-free BSA). Plates were spun for 1 min at 1000xg and incubated at room temperature for 80 min. Then 1.5 uL of each detection reagent component for the coupling system were added (0.12 mg/mL diaphorase and 0.072 mM resazurin, each in 20 mM Tris-HCl (pH 7.5), 150 mM NaCl, 10 mM MgCl2, and 0.05% protease-free BSA ) The protein, substrate and two detection components were maintained at 4 °C throughout the screen. Additionally, the substrate and resazurin reagents were protected from light. The plates were measured on an Envision plate reader for fluorescence signal using a 540 nm excitation filter and 590 nm emission filter with 10 flashes. 1x and 0x (no-enzyme) IDH1-R132H enzyme control were used to normalize %Activity of identified inhibitors; 0x enzyme values corresponded to 100% Activity (full inhibition), while 1x IDH1-R132H enzyme values were used to normalize 0%Activity (no inhibition). Concentration-response curves were fitted to the signals arising from the resulting fluorescence. The concentration-effect curves were then classified based on curve quality (r2), response magnitude and degree of measured activity, and compounds were subsequently categorized based on their curve class. […] Keywords: isocitrate dehydrogenase, IDH1, IDH1-R132H, MLSMR, MLPCN, NIH Roadmap, qHTS, NCGC
% is scaled to controls: 0 for no effect and ±100 for the full control effect.

Chains of the proteins cited; added tags and fusions are not shown.
UniProt O75874, whole entry R132H: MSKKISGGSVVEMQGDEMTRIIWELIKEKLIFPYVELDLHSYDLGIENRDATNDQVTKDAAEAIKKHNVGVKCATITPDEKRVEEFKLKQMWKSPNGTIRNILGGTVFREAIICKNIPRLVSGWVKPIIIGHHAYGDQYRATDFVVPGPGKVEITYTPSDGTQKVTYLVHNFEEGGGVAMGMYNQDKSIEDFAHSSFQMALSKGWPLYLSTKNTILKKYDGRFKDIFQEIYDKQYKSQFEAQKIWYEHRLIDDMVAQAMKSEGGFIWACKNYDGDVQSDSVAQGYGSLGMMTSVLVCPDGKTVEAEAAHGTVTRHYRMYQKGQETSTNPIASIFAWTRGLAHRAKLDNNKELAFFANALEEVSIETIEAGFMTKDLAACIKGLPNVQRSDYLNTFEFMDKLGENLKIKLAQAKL

SMILES | activity change, negative = inhibition
Cc1c([N+](=O)[O-])cc([N+](=O)[O-])c(Br)c1[N+](=O)[O-] | inactive: 0.295%
CCN(CC)CCCOC(=O)C(O)(c1ccccc1)C1CCCCC1 (stereo not given) | inactive: 4.24%
CP(=O)(Nc1ccccc1)Oc1ccc(F)cc1 (stereo not given) | inactive: 3.4%
CCCCCOc1ccc(NP(C)(=O)Oc2ccc(Cl)cc2Cl)cc1 (stereo not given) | inactive: 2.18%
CCOC(=O)c1ccc(NP(C)(=O)Oc2ccc(F)cc2)cc1 (stereo not given) | inactive: 0.505%
COc1ccc(OP(C)(=O)Nc2ccc(SC(F)(F)F)cc2)cc1 (stereo not given) | inactive: 3.26%
O=C(OCCN1CCN(CCOCc2ccccc2)CC1)C(O)(c1ccccc1)c1ccccc1 | inactive: 0.497%
CP(=O)(Nc1ccccc1F)Oc1ccccc1 (stereo not given) | inactive: 0.551%
CC(C)c1ccc(OP(C)(=O)Nc2ccc(SC(F)(F)F)cc2)cc1 (stereo not given) | inactive: 1.63%
CP(=O)(Nc1ccc2c(c1)OCCO2)Oc1ccccc1 (stereo not given) | inactive: 1.18%
Cc1ccccc1NP(C)(=O)Nc1ccccc1C | inactive: 0.648%
CP(=O)(Nc1ccc(SC(F)(F)F)cc1)Oc1ccc(F)cc1 (stereo not given) | inactive: 3.87%
CCOP(C)(=S)SCC(=O)NC(C)(CC)C(=O)O (stereo not given) | inactive: -1.43%
O=[N+]([O-])c1ccc(OP2(=O)COCCO2)cc1 (stereo not given) | inactive: -4.78%
Cc1cc(-c2cccc3ccccc23)c(C)cn1.O=[N+]([O-])c1cc([N+](=O)[O-])c(O)c([N+](=O)[O-])c1 | inactive: 7%
Cc1c(C(c2ccc3c(c2)OCO3)c2c(C)n(C)n(-c3ccccc3)c2=O)c(=O)n(-c2ccccc2)n1C.O=[N+]([O-])c1cc([N+](=O)[O-])c(O)c([N+](=O)[O-])c1 | inactive: 10.5%
COc1ccc(OP(C)(=O)Nc2cccc(Br)c2)cc1 (stereo not given) | inactive: -1.56%
CN(C)CCOC(=O)C(O)(c1ccccc1)C1CCCCC1 (stereo not given) | inactive: -1.19%
COc1ccc(NP(C)(=O)Oc2ccccc2OC)cc1 (stereo not given) | inactive: -1.91%
Nc1ccc2c(ccc3cccnc32)n1.O=[N+]([O-])c1cc([N+](=O)[O-])c(O)c([N+](=O)[O-])c1 | inactive: -1.03%
CCOC(=O)c1ccc(NP(C)(=O)Oc2ccc(Cl)cc2)cc1 (stereo not given) | inactive: 2.91%
CP(=O)(OC12CC3CC(CC(C3)C1)C2)OC12CC3CC(CC(C3)C1)C2 | inactive: 4.16%
COc1ccccc1OP(C)(=O)Nc1ccccc1Br (stereo not given) | inactive: 2.55%
CC(C)(C)c1ccc(OP(C)(=O)O)cc1 | inactive: -2.54%
CP(=O)(Nc1ccc(Cl)cc1)Oc1ccc(F)cc1 (stereo not given) | inactive: 2.43%

Reference: PubChem BioAssay AID602179 (National Center for Advancing Translational Sciences (NCATS), 2012)
